Source: paper PMC9460261, “Need for a Standardized Translational Drug Development Platform: Lessons Learned from the Repurposing of Drugs for COVID-19” (Microorganisms, 2022)

Assay: Population PK model from satellite PK studies in hamster
Conditions: hamster of the study's median weight (80-131 g)

Question: With ivermectin as the substance, how does the “VC/F, central volume of distribution, population estimate (%RSE)” value read?
Answer: Its value is 543 (5.48) mL.
